Drawing on PubChem BioAssay AID651560 (Sanford-Burnham Center for Chemical Genomics, 2012), this text covers inhibition for 49 compounds.

Chains of the proteins cited; added tags and fusions are not shown.
UniProt P24666, whole entry: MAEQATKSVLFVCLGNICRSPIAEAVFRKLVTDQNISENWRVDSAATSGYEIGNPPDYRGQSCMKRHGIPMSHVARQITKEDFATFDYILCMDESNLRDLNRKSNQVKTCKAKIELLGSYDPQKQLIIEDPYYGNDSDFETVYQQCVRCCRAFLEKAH

As usually defined, the inhibition is the change of the read-out against control, counted positive when it falls.

The structures appear in SMILES notation. Only a part is listed here, and it is no random draw. Some structures show a salt or complex split into parts, the way the source records it. The source made the active and inactive calls.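 How the source made its calls: active means compounds that cut the enzyme signal by at least half of the control window in the single-dose screen; inactive means the rest.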

For the experiment, the target named is Low molecular weight phosphotyrosine protein phosphatase (Homo sapiens) (UniProt P24666). Description: inhibition of human LMPTP-A enzyme – biochemical, fluorescence intensity, uHTS, primary screen (AID 651560).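 Further: plate controls were DMSO wells with enzyme plus substrate for no effect and substrate without enzyme for full effect.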 The conditions noted are these: recombinant LMPTP-A, OMFP fluorogenic substrate, at 20 µM, hits give high values. In short, it runs like this:
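Test system: LMPTP-A phosphatase enzyme. Amount: LMPTP-A at 0.625 nM final in the reaction. Reagent: OMFP substrate, 400 µM final. Times: 50 min at room temperature. Signal: endpoint fluorescence intensity from OMFP dephosphorylation. Read-out basis: % inhibition. Benchmarks: no-enzyme and uninhibited controls.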
Turning to `CP(=O)(Nc1ccc2c(c1)OCCO2)Oc1ccccc1` (centres undefined), the inhibition was inactive: -3.2%.
The result for `O=[N+]([O-])c1cc([N+](=O)[O-])c(C(F)(F)F)c([N+](=O)[O-])c1O` reads inactive: -0.741%.
The figure for `Cc1ccccc1NP(C)(=O)Nc1ccccc1C` is inactive: -1.12%; for `CP(=O)(Nc1ccc(SC(F)(F)F)cc1)Oc1ccc(F)cc1` (centres undefined) it is inactive: 2.58%.
The figure for `CCOP(C)(=S)SCC(=O)NC(C)(CC)C(=O)O` (centres undefined) is inactive: -2.95%.
Regarding `Cc1cc(-c2cccc3ccccc23)c(C)cn1.O=[N+]([O-])c1cc([N+](=O)[O-])c(O)c([N+](=O)[O-])c1`, the inhibition is inactive: -1.36%.
`O=[N+]([O-])c1cc([N+](=O)[O-])c(NCC2CCS(=O)(=O)C2)c([N+](=O)[O-])c1` (centres undefined): the inhibition was inactive: -0.241%.
The figure for `O=[N+]([O-])c1ccc(OP2(=O)COCCO2)cc1` (centres undefined) is inactive: -1.53%; for `Cc1c(C(c2ccc3c(c2)OCO3)c2c(C)n(C)n(-c3ccccc3)c2=O)c(=O)n(-c2ccccc2)n1C.O=[N+]([O-])c1cc([N+](=O)[O-])c(O)c([N+](=O)[O-])c1` it is inactive: -0.821%; for `COc1ccc(OP(C)(=O)Nc2cccc(Br)c2)cc1` (centres undefined) it is inactive: -1.82%.
The figure for `COc1ccc(NP(C)(=O)Oc2ccccc2OC)cc1` (centres undefined) is inactive: -0.0568%.
On to `CN(C)CCOC(=O)C(O)(c1ccccc1)C1CCCCC1` (centres undefined), for which the inhibition was inactive: -0.519%.
The result for `CCN(CC)CCCOC(=O)C(O)(c1ccccc1)C1CCCCC1` (centres undefined) reads inactive: -1.21%; that for `Cc1c([N+](=O)[O-])cc([N+](=O)[O-])c(Br)c1[N+](=O)[O-]`, inactive: -0.257%.
The result for `CCCCCOc1ccc(NP(C)(=O)Oc2ccc(Cl)cc2Cl)cc1` (centres undefined) reads inactive: 3.62%; that for `O=[N+]([O-])c1cc([N+](=O)[O-])c(OC2CCCCC2O)c([N+](=O)[O-])c1` (centres undefined), inactive: -1.05%.
The result for `CP(=O)(Nc1ccccc1)Oc1ccc(F)cc1` (centres undefined) reads inactive: -0.928%.
Take `CCN(CC)CCCNc1ccccc1[N+](=O)[O-].O=[N+]([O-])c1cc([N+](=O)[O-])c(O)c([N+](=O)[O-])c1`: the inhibition was inactive: -4.78%.
The figure for `COc1ccc(OP(C)(=O)Nc2ccc(SC(F)(F)F)cc2)cc1` (centres undefined) is inactive: 4.15%.
The result for `CCOC(=O)c1ccc(NP(C)(=O)Oc2ccc(F)cc2)cc1` (centres undefined) reads inactive: -1.44%; that for `O=C(OCCN1CCN(CCOCc2ccccc2)CC1)C(O)(c1ccccc1)c1ccccc1`, inactive: -3.62%; that for `O=C(OC1CN2CCC1CC2)c1ccc([N+](=O)[O-])cc1` (centres undefined), inactive: -2.74%.
The result for `COc1ccc2c(c1O)-c1c(O)c(OC)cc3c1[C@H](C2)[N+](C)(C)CC3.O=[N+]([O-])c1cc([N+](=O)[O-])c([O-])c([N+](=O)[O-])c1[O-]` reads inactive: -1.72%; that for `O=[N+]([O-])c1cc([N+](=O)[O-])c(Nc2ccc(Cl)cc2)c([N+](=O)[O-])c1`, inactive: 1.81%.
As to `CC(C)c1ccc(OP(C)(=O)Nc2ccc(SC(F)(F)F)cc2)cc1` (centres undefined), the inhibition is inactive: 2.32%.
As to `CP(=O)(Nc1ccccc1F)Oc1ccccc1` (centres undefined), the inhibition was inactive: -0.609%.
The result for `Cc1c(NP(C)(=O)Oc2ccc(C(C)C)cc2)c(=O)n(-c2ccccc2)n1C` (centres undefined) reads inactive: -0.95%.
The result for `O=[N+]([O-])c1cc([N+](=O)[O-])c(Nc2ccccn2)c([N+](=O)[O-])c1` reads inactive: 1.52%; that for `CCc1ccc(OP(C)(=O)O)cc1`, inactive: -3.16%; that for `CP(=O)(Nc1ccccn1)Oc1ccccc1` (centres undefined), inactive: -0.93%.
The result for `COc1ccccc1OP(C)(=O)Nc1ccc(C)cc1C` (centres undefined) reads inactive: 1.08%; that for `COc1ccccc1OP(C)(=O)Nc1ccc(Br)cc1` (centres undefined), inactive: -1.88%.
Turning to `CN(C)CCOC(=O)C(O)(c1ccccc1)C1CCCC1` (centres undefined), the inhibition is inactive: -1.36%.
The result for `COc1ccc(OP(C)(=O)Nc2ccccn2)cc1` (centres undefined) reads inactive: -0.255%.
The result for `CCCCCCCCCCCCCCCC1C[N+](C)(C)CCOP(C)(=O)O1` (centres undefined) reads inactive: -3.25%.
The result for `CP(=O)(Nc1ccc(Cl)cc1Cl)Oc1ccccc1` (centres undefined) reads inactive: -0.267%; that for `CP(=O)(OCCOc1ccccc1)OCCOc1ccccc1`, inactive: -0.209%; that for `O=C1C(O)=C([N+](=O)[O-])C(=O)C(O)=C1[N+](=O)[O-]`, inactive: 22.8%.
For the compound `Cc1cc(C)cc(OP(C)(=O)Nc2cccc(C(F)(F)F)c2)c1` (centres undefined), the inhibition was inactive: 1.35%.
The figure for `COc1ccc(OP(C)(=O)Nc2ccccc2Br)cc1` (centres undefined) is inactive: -1.67%.
Turning to `COc1ccccc1OP(C)(=O)Nc1ccc(C)c(C)c1` (centres undefined), the inhibition is inactive: -1.1%.
The result for `CP(=O)(OC12CC3CC(CC(C3)C1)C2)OC12CC3CC(CC(C3)C1)C2` reads inactive: 1.1%; that for `CCOC(=O)c1ccc(NP(C)(=O)Oc2ccc(Cl)cc2)cc1` (centres undefined), inactive: -1.3%.
The figure for `CP(=O)(Nc1ccc(Cl)cc1)Oc1ccc(F)cc1` (centres undefined) is inactive: -0.374%.
The result for `COc1ccccc1OP(C)(=O)Nc1ccccc1Br` (centres undefined) reads inactive: -0.459%; that for `CC(C)(C)c1ccc(OP(C)(=O)O)cc1`, inactive: -0.856%; that for `CN(C)C(=O)c1c([N+](=O)[O-])cc([N+](=O)[O-])cc1[N+](=O)[O-]`, inactive: 0.847%.
Regarding `CCN(CC)CC(O)COC(=O)C(O)(c1ccccc1)C1CCCCC1` (centres undefined), the inhibition is inactive: -1.9%.
The figure for `COc1ccc(OP(C)(=O)Nc2ccc(Br)cc2)cc1` (centres undefined) is inactive: -1.17%.
